Reference: PubChem BioAssay AID2718 (Broad Institute, 2010)
Only a part is listed here, and it is no random draw. Calls of active or inactive are those of the source. Cut-off read from the data, not from the text of the source: active = inhibition above about 26% (passing the limit was not always enough); inconclusive = no clear call, values can overlap the other calls.

Sequences of proteins named here, by UniProt entry; tags and fusion partners are left off. A change or cut given only in a name is not applied to a line headed by its entry.
UniProt O15379: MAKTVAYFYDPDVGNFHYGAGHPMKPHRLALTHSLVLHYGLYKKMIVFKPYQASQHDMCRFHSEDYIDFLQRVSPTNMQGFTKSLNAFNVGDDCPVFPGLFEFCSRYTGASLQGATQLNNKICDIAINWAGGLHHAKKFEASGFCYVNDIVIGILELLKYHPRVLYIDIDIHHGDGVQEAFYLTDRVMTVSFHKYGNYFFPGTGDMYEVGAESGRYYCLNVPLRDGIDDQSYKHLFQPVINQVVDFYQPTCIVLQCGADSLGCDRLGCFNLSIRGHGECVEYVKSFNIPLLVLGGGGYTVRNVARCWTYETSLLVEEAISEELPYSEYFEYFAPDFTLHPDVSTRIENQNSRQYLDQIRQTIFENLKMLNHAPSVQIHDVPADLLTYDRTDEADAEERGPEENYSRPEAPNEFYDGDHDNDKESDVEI

What follows are molecules tested against Histone deacetylase 3 (Homo sapiens) (UniProt O15379) (assay: inhibition of human HDAC3 enzyme activity – biochemical, fluorescence, cell-free homogeneous, primary screen (AID 2718)). Settings: recombinant HDAC3, fluorogenic peptide/trypsin coupled, at 8.3 µM, active compounds read high.
For `Nc1ccc([As](=O)(O)c2ccc(N)cc2)cc1`, the inhibition was inactive: -6.07%.
For `C[N+]1=C2C=CC=CC=C2SC12C([N+](=O)[O-])=CC([N+](=O)[O-])=C[C-]2[N+](=O)[O-]` (stereo not given), the inhibition was inactive: 1.01%.
In the case of `CCN(/C(=N/P(=O)(N1CCOCC1)N1CCOCC1)N1CCOCC1)c1ccc(OC)cc1`, the inhibition is reported as inactive: -2.74%.
With `CC(C)=N/N=C(\N)N[N+](=O)[O-]` the inhibition was inactive: 2.72%.
For `CN(C)C(=O)OCCc1n(C)cc[n+]1C`, the inhibition was inactive: -0.0759%.
`CC1CCN(C(=O)Oc2c(Cl)cc(Cl)c3cccnc23)CC1` was tested, and the inhibition was inactive: 5.34%.
In the case of `COc1ccc(C2=NCC(CBr)S2)cc1` (stereo not given), the inhibition is reported as inactive: -1.56%.
In the case of `O=[N+]([O-])c1cccc2n[nH]nc12`, the inhibition is reported as inactive: 3.5%.
`CC(=O)N1C2C3N(C(C)=O)C1C1N(C(C)=O)C(C(N1C(C)=O)N3C(C)=O)N2C(C)=O` was tested, and the inhibition was inactive: 0.931%.
For `Cc1ccc(NP(=O)(Oc2ccccc2)Oc2ccccc2)nc1`, the inhibition was inactive: 0.935%.
For `CCc1nc2c(n1)c1c(non1O)c1c2no[n+]1[O-]`, the inhibition was inactive: -0.364%.
`O=[N+]([O-])c1cc([N+](=O)[O-])c(CCNc2ccccc2)c([N+](=O)[O-])c1` was tested, and the inhibition was inactive: 1.75%.
For `CC(C)(C)C(=O)NC(Sc1ccncn1)C(Cl)(Cl)Cl` (stereo not given), the inhibition was inactive: 0.464%.
`O=[N+]([O-])c1ncn(CCn2ncnc2[N+](=O)[O-])n1` was tested, and the inhibition was inactive: 0.997%.
With `O=[N+]([O-])c1cccc(NC2=NCC(CBr)S2)c1` (stereo not given) the inhibition was inactive: 1.61%.
In the case of `O=C(O)CNc1ccc([As](=O)(O)O)cc1`, the inhibition is reported as inactive: 10.4%.
In the case of `O=C(Nc1cc([As](=O)(O)O)ccc1O)c1ccccc1`, the inhibition is reported as inactive: 1.65%.
`O=[N+]([O-])c1cc([N+](=O)[O-])c(CCN2CCOCC2)c([N+](=O)[O-])c1` was tested, and the inhibition was inactive: 8.65%.
For `CCN(N=Nc1nonc1N)c1nonc1N`, the inhibition was inactive: 4.52%.
For `Nc1cccc2ccc([As](=O)(O)O)cc12`, the inhibition was inactive: -4.08%.
`O=C(O)c1ccccc1[As](=O)(O)O` was tested, and the inhibition was inactive: -0.55%.
With `CC(=O)Nc1ccc([As](=O)(O)O)cc1` the inhibition was inactive: 0.491%.
`O=P(Nc1nc2ccc(Cl)cc2s1)(c1ccccc1)c1ccccc1` was tested, and the inhibition was inactive: -1.63%.
With `CCOP(=O)(Nc1ccccc1)OCC` the inhibition was inactive: 3.97%.
`Cc1cc(SC(NC(=O)c2ccc(F)cc2)C(Cl)(Cl)Cl)ncn1` (stereo not given) was tested, and the inhibition was inactive: 3.44%.
With `Cc1ccc(NP(=O)(Oc2ccccc2F)Oc2ccccc2F)nc1` the inhibition was inactive: -0.9%.
With `CN(C(=O)Cc1ccc(Cl)c(Cl)c1)[C@H]1CCCC[C@@H]1N1CCCC1` the inhibition was inactive: -4.89%.
`CC(C)CC(=O)NC(Sc1ccc(Cl)cc1)C(Cl)(Cl)Cl` (stereo not given) was tested, and the inhibition was inactive: -3.14%.
`Nc1cc(N)c2nonc2c1[N+](=O)[O-]` was tested, and the inhibition was inactive: -0.604%.
`Oc1ccccc1CNc1ccccn1` was tested, and the inhibition was inactive: -2.79%.
For `Cc1c2non([O-])c-2c(C)[n+](=O)[n+]1[O-]`, the inhibition was inactive: 3.53%.
For `O=C(NC(Sc1ccncn1)C(Cl)(Cl)Cl)c1ccccc1` (stereo not given), the inhibition was inactive: -1.26%.
In the case of `NC(=O)c1cc([N+](=O)[O-])cc([N+](=O)[O-])c1N`, the inhibition is reported as inactive: 7.17%.
For `CN(C(=O)Cc1ccc(Cl)c(Cl)c1)[C@H]1CCCC[C@H]1N1CCCC1`, the inhibition was inactive: 3.03%.
For `Cc1ccc(N/C(=N/P(=O)(N2CCOCC2)N2CCOCC2)N2CCOCC2)cc1`, the inhibition was inactive: 6.2%.
In the case of `COc1ccccc1OP(=O)(Nc1ccc(C)cn1)Oc1ccccc1OC`, the inhibition is reported as inactive: 1.77%.
In the case of `Cc1ccc(OP(=O)(Nc2nccs2)Oc2ccc(C)cc2)cc1`, the inhibition is reported as inactive: 0.861%.
In the case of `Clc1ccc(Cl)c(NC2=NCC(CBr)S2)c1` (stereo not given), the inhibition is reported as inactive: 1.25%.
`CN1CCCC(OC(=O)C(c2ccccc2)c2ccccc2)C1` (stereo not given) was tested, and the inhibition was inactive: 0.89%.
For `C[C@@H]1C=CCP(=O)(Oc2ccccc2)O1` (stereo not given in full), the inhibition was inactive: -4.01%.
In the case of `C[C@H]1OP(=O)(Oc2ccccc2)C[C@@H]2O[C@@H]21` (stereo not given in full), the inhibition is reported as inactive: -2.87%.
With `CC(=O)Nc1ccc([As](=O)(O)O)c(O)c1` the inhibition was inactive: -2.62%.
`CC(=O)Nc1ccc(Oc2c([N+](=O)[O-])cc([N+](=O)[O-])cc2[N+](=O)[O-])cc1` was tested, and the inhibition was inactive: 3.25%.
With `O=P1(Nc2nc3ccc(Cl)cc3s2)COc2ccccc2O1` (stereo not given) the inhibition was inactive: 0.0115%.
For `CCOc1ccc(C2=NCC(CBr)S2)cc1` (stereo not given), the inhibition was inactive: -2.92%.
For `CC(C)(C)C(=O)NC(Sc1ccccc1)C(Cl)(Cl)Cl` (stereo not given), the inhibition was inactive: 9.29%.
For `COC(=O)c1cc2c(s1)N=C(c1ccccc1)N(C)P2(=O)N1CCOCC1` (stereo not given), the inhibition was inactive: 3.82%.
With `Cc1ccc(OP(=O)(Nc2ccccn2)Oc2ccc(C)cc2)cc1` the inhibition was inactive: 1.79%.
`CC(=O)NC(SC(=S)N(CC(C)C)CC(C)C)C(Cl)(Cl)Cl` (stereo not given) was tested, and the inhibition was inactive: 6.89%.
In the case of `O=C(OC1CN2CCC1CC2)c1ccccc1` (stereo not given), the inhibition is reported as inactive: -0.53%.
For `CCC(=O)N1C2C3N(C(=O)CC)C1C1N(C(=O)CC)C(C(N1C(=O)CC)N3C(=O)CC)N2C(=O)CC`, the inhibition was inactive: 0.1%.
`Cc1ccccc1OP(=O)(Nc1ccccn1)Oc1ccccc1C` was tested, and the inhibition was inactive: -0.294%.
With `CC(NC(=O)COC(=O)C(O)(c1ccccc1)c1ccccc1)c1ccccc1` (stereo not given) the inhibition was inactive: -2.15%.
In the case of `CN(C)C(=O)Oc1noc2ccccc12`, the inhibition is reported as inactive: 3.02%.
`CCNC(=S)/N=C(\N)N[N+](=O)[O-]` was tested, and the inhibition was inactive: 7.59%.
With `O=C(NC1CCS(=O)(=O)C1)NP(=S)(Oc1ccccc1)Oc1ccccc1` (stereo not given) the inhibition was inactive: -2.18%.
In the case of `c1ccc(-c2nn[nH]n2)c(-c2nn[nH]n2)c1`, the inhibition is reported as inactive: 3.28%.
With `CCOC(=O)NC(Sc1ccccc1)C(Cl)(Cl)Cl` (stereo not given) the inhibition was inactive: -3.32%.
`Cc1ccc(NP(=O)(Oc2cccc(C)c2)Oc2cccc(C)c2)nc1` was tested, and the inhibition was inactive: -4.19%.
`O=[N+]([O-])c1ccc(O)c(/C=N/Nc2ccc([N+](=O)[O-])cc2[N+](=O)[O-])c1` was tested, and the inhibition was inactive: -5.57%.
In the case of `O=[N+]([O-])c1ncn(CCn2cnc([N+](=O)[O-])n2)n1`, the inhibition is reported as inactive: -4.34%.
With `CC(=O)NC(SC(=S)N(C)C)C(Cl)(Cl)Cl` (stereo not given) the inhibition was inactive: 3.66%.
`O=[As](O)(c1ccccc1)c1ccc(O)cc1` was tested, and the inhibition was inactive: 2.49%.
In the case of `Nc1ccc([As](=O)(O)c2ccc([N+](=O)[O-])cc2)cc1`, the inhibition is reported as inactive: -2.23%.
`C(Cc1nn[nH]n1)Cc1nn[nH]n1` was tested, and the inhibition was inactive: 5.18%.
With `O=C(OC1CN2CCC1CC2)c1cccc(Cl)c1` (stereo not given) the inhibition was inactive: 1.1%.
For `O=P(Nc1ccccn1)(c1ccc(Br)cc1)c1ccc(Br)cc1`, the inhibition was inactive: 0.345%.
In the case of `CN(C)C1(CNC(=O)c2ccc(Cl)c(S(N)(=O)=O)c2)CCCCC1`, the inhibition is reported as inactive: 3.46%.
With `C[C@H]1OP(=O)(Oc2ccccc2)[C@H](O)[C@H](O)[C@H]1N=[N+]=[N-]` (stereo not given in full) the inhibition was inactive: 6.53%.
For `CC(C)C(=O)NC(Sc1ccccc1)C(Cl)(Cl)Cl` (stereo not given), the inhibition was inactive: -3.79%.
For `O=P(Nc1nccs1)(c1ccccc1)c1ccccc1`, the inhibition was inactive: -5.53%.
For `c1nnnn1CCn1cnnn1`, the inhibition was inactive: -2.6%.
With `COc1ccccc1CNC(=O)COC(=O)C(O)(c1ccccc1)c1ccccc1` the inhibition was inactive: -8.31%.
`CC1(CBr)Cn2c(nc3ccccc3c2=O)S1` (stereo not given) was tested, and the inhibition was inactive: 6.19%.
With `CC(C)/C=N\N=C(\N)N[N+](=O)[O-]` the inhibition was inactive: -1.42%.
With `CN(C(=O)Cc1ccc(Cl)c(Cl)c1)[C@@H]1CCCC[C@H]1N1CCCC1` the inhibition was inactive: -1.89%.
With `CN(CCCl)Cc1cc(Cl)c(NC2=NCCN2)c(Cl)c1` the inhibition was inactive: -5.49%.
In the case of `CCOP(=O)(Nc1ccc(C)cn1)OCC`, the inhibition is reported as inactive: 1.97%.
`O=P1(Nc2ccccn2)COc2ccccc2OC1` was tested, and the inhibition was inactive: -4%.
`CCC1=CC2Cc3nc4ccc(Cl)cc4c(N)c3C(C1)C2` (stereo not given) was tested, and the inhibition was inactive: 2.79%.
`CCOP(=O)(NC(=NC(C)c1ccccc1)NC(C)c1ccccc1)OCC` (stereo not given) was tested, and the inhibition was inactive: -2.52%.
In the case of `Clc1n[nH]nc1-c1nn[nH][15n]1`, the inhibition is reported as inactive: 0.891%.
For `O=P1(Nc2ncccn2)COc2ccccc2OC1`, the inhibition was inactive: -0.72%.
For `O=P1(Nc2ccc(Br)cn2)COc2ccccc2OC1`, the inhibition was inactive: -1.35%.
`NS(=O)(=O)c1cccc(NC(=O)COC(=O)C(O)(c2ccccc2)c2ccccc2)c1` was tested, and the inhibition was inactive: 3.58%.
In the case of `O=[As](O)(c1cccs1)c1cccs1`, the inhibition is reported as inactive: 0.313%.
With `Cc1ccc(OCC(=O)OC2CN3CCC2CC3)cc1` (stereo not given) the inhibition was inactive: -0.776%.
For `Nc1cccc([As](=O)(O)c2ccccc2)c1`, the inhibition was inactive: -2.62%.
With `Cc1nn(-c2ccccc2)c2c1P(=O)(N1CCOCC1)N(C)C(c1ccccc1)=N2` (stereo not given) the inhibition was inactive: 9.53%.
In the case of `CC1CCC(C(C)C)C(OP(=O)(Nc2ccccn2)c2ccccc2)C1` (stereo not given), the inhibition is reported as inactive: 15.8%.
`Cc1ccc(C(=O)OC2CN3CCC2CC3)cc1` (stereo not given) was tested, and the inhibition was inactive: -3.8%.
In the case of `O=C(/C=C/c1ccccc1)OC1CN2CCC1CC2` (stereo not given), the inhibition is reported as inactive: -2.06%.
`CN(C)C1(CNC(=O)c2ccc(S(C)(=O)=O)cc2)CCCCC1` was tested, and the inhibition was inactive: -10.8%.
For `NC(=O)Nc1ccc([As](=O)(O)O)cc1`, the inhibition was inactive: -7.2%.
With `CN(C)C(=O)c1cc([N+](=O)[O-])cc2c1-c1c(cc([N+](=O)[O-])cc1[N+](=O)[O-])C2=O` the inhibition was inactive: -2.2%.
With `O=[N+]([O-])c1ccc2c(c1)nnn2O` the inhibition was inactive: -1.38%.
In the case of `CN(C(=O)Cc1ccc(Cl)c(Cl)c1)[C@H]1CC[C@@]2(CCCO2)C[C@@H]1N1CCCC1`, the inhibition is reported as inactive: -0.831%.
`N#CCCN(C(=O)COC(=O)C(O)(c1ccccc1)c1ccccc1)c1ccc(F)cc1` was tested, and the inhibition was inactive: 4.9%.
In the case of `CN(C(=O)Cc1ccccc1)[C@@H]1CC[C@]2(CCCO2)C[C@H]1N1CCCC1`, the inhibition is reported as inactive: 2.76%.
In the case of `CCOP1(=S)c2c(C)nn(CCC#N)c2N=C(c2ccc(F)cc2)N1C` (stereo not given), the inhibition is reported as inactive: -0.165%.
